## Antibody variant affinities, Ab-14 light chain, assay B

Reference: Li et al. 2023, doi:10.1038/s41467-023-39022-2. File: FLAb, binding data.

The target is the same throughout: PDVDLGDISGINAS, from the HR2 region of SARS-CoV-2 spike.

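The starting antibody came from a phage panning campaign against this peptide. This is the validation round: designs drawn from the data on random variants, tested in the same kind of assay. Their group label is 14L_En_HC (En: ensemble of fine-tuned language models; HC: hill climbing; a sequence that several methods proposed may carry one label only). In AlphaSeq, yeast of one mating type display the scFv and yeast of the other type display the target. After mating in shaken culture at 30 °C for 16 h, diploids were selected and their barcode pairs sequenced. Read counts were normalised to the haploid input and turned into Kd by a linear fit to BCL2-family pairs of known affinity, for each replicate. Mating was done six times.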

Parent scFv Ab-14: VH joined to VL by a 15-residue (Gly4Ser)3 linker. Changes lie in the light chain CDRs alone.
VH: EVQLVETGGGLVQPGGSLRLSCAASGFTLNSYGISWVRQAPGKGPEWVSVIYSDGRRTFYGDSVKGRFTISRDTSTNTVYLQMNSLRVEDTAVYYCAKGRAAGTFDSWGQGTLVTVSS
VL: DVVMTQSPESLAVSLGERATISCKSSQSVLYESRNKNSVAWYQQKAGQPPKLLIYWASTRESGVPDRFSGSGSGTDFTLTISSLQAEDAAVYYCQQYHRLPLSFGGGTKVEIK

Each variant is given by its three light chain CDRs, as the data file delimits them; those of the parent are KSSQSVLYESRNKNSVA, WASTRES, QQYHRLPLS. The read-out is the apparent dissociation constant on a log10 scale (nM): the lower, the stronger. A pair that was not seen in that replicate is written "nd"; this usually means weak binding, but a binder can also be missed. Nonspecific signal, from three strains lacking the peptide, appeared in 4% of pairings of all light chain designs, centred on 2.64 (5% of these signals below 1.59); values are not corrected for it. For each scFv, signals with the empty controls are counted beside the result. A sequence measured in both rounds can read differently, since the two assays cover different ranges. Of ten entries with the parent sequence, four were seen in most replicates (averages 0.34 to 2.37), three in one and three in none, so single entries are noisy. In the paper, a design with two or fewer of six values counts as a poor binder.

KLQQFYRMESRNKNSVA, DNSTRES, QDYDRLPLS: nd, 3.04, nd, nd, nd, nd (controls 1 of 18).
MFSSLMEYGQRYKNSVA, QASVREN, QQYHWLPLS: 1.44, 1.65, 2.20, 2.89, 0.94, 1.16 (controls 1 of 18).
SITQLIAYGSRNKNSVA, QMSTRES, QQYDRLPLS: 0.97, 0.63, 0.62, 0.47, 0.99, 1.37 (controls 0 of 18).
TLTQVQGMESHNKDNVA, DLSTRGS, QQYHRLPLS: 0.24, 0.38, 0.21, 0.05, -0.19, 0.23 (controls 1 of 18).
KFGSMVLTGSYVKNSVA, QSSTREN, QQYHRLPLS: 0.70, 0.58, 0.56, 0.56, 0.67, 0.56 (controls 1 of 18).
MMSMGYLGGMRAKNNVA, QEETREK, QQYHHLPLI: 1.42, 1.96, 1.33, 0.86, 0.75, 0.54 (controls 0 of 18).
KLSQAVNMTGKNKNSVA, ELSFRES, QQYERLPLS: 1.43, 1.85, 1.90, 1.53, 1.57, 1.95 (controls 0 of 18).
KLYMTVGYEQRNKSRVA, DNNTRED, QQYDRLPLS: nd, 2.36, 2.58, nd, nd, nd (controls 0 of 18).
KLSATYRYESMNKNSIA, EMTTRES, QCYHRLPLS: 0.01, 0.65, 0.01, -0.46, -0.39, 0.08 (controls 1 of 18).
MMSYGWLYGSRNKRNVA, DRETRLS, QQYDRLPLS: 0.44, 0.41, 0.44, 0.46, 0.22, 0.70 (controls 3 of 18).
KIMQTLNYESFNVSSVA, GQETRER, QSYHRLPLS: 1.68, 1.14, 0.69, 1.00, 0.65, 1.58 (controls 0 of 18).
KYSQNVLIMGKNKNNVA, EMTTREE, QQYDRLPLS: 0.45, 0.28, 0.41, 0.27, 0.35, 0.61 (controls 2 of 18).
HISYSMGHLSKNKNSVA, NQQTRES, QQYHRLPLS: 1.08, 1.36, 0.95, 0.75, 0.83, 1.12 (controls 2 of 18).
MISDLTMYGSRNKHSVA, DLSTRGS, QQYHRLPLS: 0.22, -0.16, 0.02, 0.16, 0.07, 0.21 (controls 0 of 18).
TLTQVTMVESYEKNSVA, QASTRLE, QDYHRLPLS: 1.70, 2.22, 1.72, 1.39, 1.52, 1.64 (controls 1 of 18).
KISQATRMESRNKASVA, ENSTRES, QQYFRLPLS: -0.09, -0.28, -0.19, -0.39, -0.02, -0.12 (controls 4 of 18).
KVGQMTALESRNLNSVA, QMDTRES, QQYHRLPLS: 0.08, 0.12, 0.00, -0.02, 0.05, 0.13 (controls 1 of 18).
HISYSMQHLSKNKNSVA, NQQTREY, QQYHMLPLS: 0.12, 0.16, 0.76, 0.05, 0.56, 0.61 (controls 0 of 18).
TLMQVGGYESNAHNSIA, DLRTRED, QQYHRLPLS: 1.29, 0.47, 1.22, 0.80, 1.30, 1.27 (controls 0 of 18).
TISMSMNWLTFNKDNIA, EESKRED, QQYDRLPLS: 1.44, 1.76, 0.93, 0.95, 1.10, 1.17 (controls 0 of 18).
SFSQTVMYESTMRNNVA, QTSTRES, QQYDRLPLS: 0.48, 0.64, 0.60, 0.51, 0.75, 1.17 (controls 0 of 18).
KIGMQVTYQSMVNNAIA, QMETREE, QQYHRLPLS: nd, 3.48, nd, 3.11, 3.04, 1.73 (controls 0 of 18).
KISGYLNKESKNKYNVA, EMVNRES, QQYDRLPLS: 0.50, 0.54, 0.30, 0.27, 0.52, 0.54 (controls 0 of 18).
KLGQMTALESRNLNSVA, QMDTRES, QQYHRLPLS: 1.10, 1.00, 0.70, 0.82, 1.19, 1.05 (controls 0 of 18).
KLSMSVLMESRNKNSVA, ENSTRES, QHYHRLPLS: 1.62, 1.68, 2.08, 1.69, 1.78, 2.09 (controls 0 of 18).
HISQMVMLGSCNKNNVA, QVSTREE, QQYHRLPLS: 0.90, 1.18, 0.77, 0.87, 1.28, 0.87 (controls 3 of 18).
QISDLVKMESRNTNSVA, DNSTRGS, QQYDRLPLS: 1.53, 1.72, 2.41, 2.13, 1.25, 2.22 (controls 0 of 18).
KIMQSLNYETFNKNSVA, GQETRER, QSYHRLPLS: 1.06, 0.71, 0.25, 0.30, 0.67, 0.81 (controls 0 of 18).
KLRQLTQTEGYFKNSVA, QASTREN, QSYHRLPLS: 0.78, 1.03, 0.58, 0.61, 0.41, 0.99 (controls 1 of 18).
TITQVQGMESHNKDNVA, DLSTRGN, QQYDRLPLS: 0.93, 1.25, 0.81, 1.12, 0.90, 0.69 (controls 2 of 18).
NVGQLMDGELRNKNSVA, HQSTRED, QHYHRLPLS: 0.99, 1.34, 1.26, 1.44, 0.93, 1.51 (controls 2 of 18).